Experiments:
[1] = biological target: Cholinesterase (Homo sapiens, UniProt P06276); assay: In vitro inhibition of human plasma butyrylcholinesterase.; type: cell-free
[2] = biological target: Acetylcholinesterase (Homo sapiens, UniProt P22303); assay: In vitro inhibition of human erythrocyte acetylcholinesterase.

Sequences of proteins named here, by UniProt entry; tags and fusion partners are left off. A change or cut given only in a name is not applied to a line headed by its entry.
UniProt P06276, whole entry: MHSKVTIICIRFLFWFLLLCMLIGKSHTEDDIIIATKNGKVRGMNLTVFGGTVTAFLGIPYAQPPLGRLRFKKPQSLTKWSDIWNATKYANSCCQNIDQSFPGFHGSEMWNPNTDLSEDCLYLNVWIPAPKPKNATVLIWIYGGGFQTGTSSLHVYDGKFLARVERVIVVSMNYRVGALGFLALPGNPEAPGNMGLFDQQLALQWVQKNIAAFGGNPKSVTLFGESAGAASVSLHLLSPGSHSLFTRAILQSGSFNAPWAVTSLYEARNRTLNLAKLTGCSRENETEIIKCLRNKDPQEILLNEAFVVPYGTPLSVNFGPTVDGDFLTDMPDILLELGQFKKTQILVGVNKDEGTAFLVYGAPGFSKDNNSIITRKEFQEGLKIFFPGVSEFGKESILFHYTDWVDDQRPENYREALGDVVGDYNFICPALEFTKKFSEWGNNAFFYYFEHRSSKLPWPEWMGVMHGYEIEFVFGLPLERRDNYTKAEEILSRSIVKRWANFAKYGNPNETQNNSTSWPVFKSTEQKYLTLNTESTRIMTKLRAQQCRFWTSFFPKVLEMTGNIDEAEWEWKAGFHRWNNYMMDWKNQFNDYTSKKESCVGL
UniProt P22303: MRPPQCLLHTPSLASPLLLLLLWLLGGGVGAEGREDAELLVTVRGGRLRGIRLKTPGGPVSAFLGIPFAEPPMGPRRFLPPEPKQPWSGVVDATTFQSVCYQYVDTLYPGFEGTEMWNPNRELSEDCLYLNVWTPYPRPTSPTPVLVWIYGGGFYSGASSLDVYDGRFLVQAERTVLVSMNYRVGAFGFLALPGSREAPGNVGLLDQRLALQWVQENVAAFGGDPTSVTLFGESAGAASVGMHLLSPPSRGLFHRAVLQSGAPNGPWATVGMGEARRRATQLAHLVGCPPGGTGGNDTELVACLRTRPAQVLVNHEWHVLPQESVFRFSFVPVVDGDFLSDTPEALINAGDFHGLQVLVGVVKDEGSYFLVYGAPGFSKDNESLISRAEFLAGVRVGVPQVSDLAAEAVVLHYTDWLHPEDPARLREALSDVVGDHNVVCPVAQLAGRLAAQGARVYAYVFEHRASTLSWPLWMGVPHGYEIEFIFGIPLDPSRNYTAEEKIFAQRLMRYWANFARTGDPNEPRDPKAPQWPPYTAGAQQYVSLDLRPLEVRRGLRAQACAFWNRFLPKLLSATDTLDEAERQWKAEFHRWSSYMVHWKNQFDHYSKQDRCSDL

Q: Which IC50 [1] does the source give for `CC(C)c1ccc(NC(=O)Oc2ccc3c(c2)[C@]2(C)CCN(C)[C@@H]2N3C)cc1` [4-ISOPROPYLPHENSERINE] here?
A: 50 nM

Q: Which IC50 [2] does the source give for `CN1CC[C@@]2(C)c3cc(OC(=O)Nc4ccccc4)ccc3N(C)[C@@H]12` [PHENSERINE] here?
A: 22 nM
